These results are taken from patent US12404270B2, “Quinazoline derivatives as LPA receptor 2 inhibitors” (CHIESI FARMACEUTICI S.P.A., priority 2019, dated 2025).

By UniProt entry, the sequences of proteins in these tests, tags left out.
UniProt Q9HBW0, whole entry: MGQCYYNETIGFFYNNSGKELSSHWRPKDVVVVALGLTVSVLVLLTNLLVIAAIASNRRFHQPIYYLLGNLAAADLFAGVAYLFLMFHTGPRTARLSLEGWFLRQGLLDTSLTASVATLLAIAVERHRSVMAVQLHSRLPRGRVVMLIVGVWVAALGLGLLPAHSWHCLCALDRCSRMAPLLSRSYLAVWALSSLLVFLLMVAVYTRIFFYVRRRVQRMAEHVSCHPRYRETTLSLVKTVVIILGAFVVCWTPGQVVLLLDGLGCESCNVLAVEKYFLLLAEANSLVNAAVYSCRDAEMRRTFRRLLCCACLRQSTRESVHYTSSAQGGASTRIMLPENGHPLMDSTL

The target in this assay is T1, human recombinant LPA2 expressed in CHO cells (Homo sapiens, UniProt Q9HBW0).
T1 construct: expressed in transfected cells; host or cells: CHO (CHO-hLPA2 cell line)
Briefly: FLIPR calcium mobilization assay, LPA2 antagonism in CHO-hLPA2 cells. The assay is classed as cell-based. Particulars: inhibition of LPA EC80 Ca2+ response, 30 min pre-incubation. The procedure: The effectiveness of compounds of the present invention as LPA2 antagonist can be determined at the human recombinant LPA2 expressed in CHO cells, using a FLIPR assay in 384 well format.
CHO-hLPA2 cell lines are cultured in a humidified incubator at 5% CO2 in DMEM/F-12 (1:1) MIXTURE with 2 mM Glutamax, supplemented with 10% of Foetal Bovine Serum, 1 mM Sodium Pyruvate, 11 mM Hepes and 1× Penicillin/Streptomycin. CHO hLPA2 cells are seeded into black walled clear-bottom 384-well plates (#781091, Greiner Bio-One GmbH) at a density of 7,500 cells per well in 50 μl culture media and grown overnight in a 37° C. humidified CO2-incubator. Serial dilutions (1:3 or 1:4, 11 points CRC) of compounds are performed in 100% DMSO at 200× the final concentration. […] The loaded cell plates are transferred into the FLIPR instrument and calcium responses are monitored during the on-line addition protocols. […] Intracellular peak fluorescence values subtracted by baseline fluorescence are exported and analysed to determine IC50 values, respectively. The calcium response is expressed as percentage of the maximal inhibition of the EC80 agonist response.
The raw data (peak height expressed as relative fluorescence units) are normalized and transformed into “percent of inhibition”. […]
Background: Calcium flux is commonly read through the fluorescence of an indicator in the cells.

Regarding `COC(=O)c1cccc2c(N[C@@H](C)CN3CCN(S(=O)(=O)c4ccc(Cl)c(Cl)c4)CC3)ncnc12` (racemic) [Example 10, methyl 4-{[(2S)-1-[4-(3,4-dichlorobenzenesulfonyl)piperazin-1-yl]propan-2-yl]amino}quinazoline-8-carboxylate], the 50% inhibitory concentration (IC50) – broadly, the midpoint of a concentration-inhibition curve – is less than 1000 nM.

`COC(=O)Nc1nc(C)c(S(=O)(=O)N2CCN(C[C@H](C)Nc3ncnc4c(C(=O)N(C)C)cccc34)CC2)s1` (racemic) [Example 27, methyl N-[5-({4-[(2S)-2-{[8-(dimethylcarbamoyl)quinazolin-4-yl]amino}propyl]piperazin-1-yl}sulfonyl)-4-methyl-1,3-thiazol-2-yl]carbamate]: the half-maximal inhibitory concentration (IC50) was less than 1000 nM.
